This passage reports IC50 results from ChEMBL document CHEMBL3259661, “Identification of a neuroprotective and selective butyrylcholinesterase inhibitor derived from the natural alkaloid evodiamine” (Eur J Med Chem, 2014).

Chains of the proteins cited; added tags and fusions are not shown. Lines headed by an entry give the natural chain unless they say otherwise; changes in a name come on top.
UniProt P81908, whole entry: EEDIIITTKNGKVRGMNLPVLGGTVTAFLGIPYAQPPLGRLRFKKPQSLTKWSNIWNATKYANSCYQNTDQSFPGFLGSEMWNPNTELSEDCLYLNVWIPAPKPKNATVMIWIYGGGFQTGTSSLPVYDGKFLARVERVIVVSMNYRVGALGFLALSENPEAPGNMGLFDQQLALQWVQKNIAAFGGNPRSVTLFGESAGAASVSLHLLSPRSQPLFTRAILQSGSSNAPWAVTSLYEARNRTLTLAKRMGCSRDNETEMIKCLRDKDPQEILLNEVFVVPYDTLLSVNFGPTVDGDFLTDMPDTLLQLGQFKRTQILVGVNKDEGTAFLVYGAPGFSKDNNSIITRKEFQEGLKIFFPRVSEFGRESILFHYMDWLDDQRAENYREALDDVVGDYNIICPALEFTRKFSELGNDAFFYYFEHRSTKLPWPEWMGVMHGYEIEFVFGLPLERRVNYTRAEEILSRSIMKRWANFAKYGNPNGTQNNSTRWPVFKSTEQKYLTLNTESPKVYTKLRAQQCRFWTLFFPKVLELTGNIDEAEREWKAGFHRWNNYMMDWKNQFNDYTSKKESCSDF
UniProt O42275: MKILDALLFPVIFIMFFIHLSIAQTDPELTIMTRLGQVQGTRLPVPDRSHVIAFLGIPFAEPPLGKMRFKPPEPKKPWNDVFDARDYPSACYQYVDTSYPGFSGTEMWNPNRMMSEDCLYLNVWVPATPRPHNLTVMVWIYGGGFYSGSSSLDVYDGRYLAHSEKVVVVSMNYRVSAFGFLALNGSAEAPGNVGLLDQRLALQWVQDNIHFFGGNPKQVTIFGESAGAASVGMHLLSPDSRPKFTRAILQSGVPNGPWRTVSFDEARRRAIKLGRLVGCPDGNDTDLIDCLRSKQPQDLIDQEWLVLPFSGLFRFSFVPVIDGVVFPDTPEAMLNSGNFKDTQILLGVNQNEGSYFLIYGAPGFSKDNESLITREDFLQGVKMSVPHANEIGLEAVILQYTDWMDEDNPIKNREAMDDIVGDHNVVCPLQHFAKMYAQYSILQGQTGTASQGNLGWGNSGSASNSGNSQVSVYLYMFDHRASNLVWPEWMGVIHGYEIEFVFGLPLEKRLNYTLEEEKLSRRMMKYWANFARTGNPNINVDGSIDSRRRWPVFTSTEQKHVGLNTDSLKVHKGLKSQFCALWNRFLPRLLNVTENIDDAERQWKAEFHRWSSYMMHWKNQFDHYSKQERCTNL

One experiment concerns the target Cholinesterase (Equus caballus, UniProt P81908). Nature of the experiment: Inhibition of equine serum BChE by Ellman's method. In outline: (§1)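 Ellman assay on electric eel AChE or equine serum BChE at 25 °C, absorbance 412 nm. Ethanol stocks diluted into assay, highest final concentration 10^-4 M. For curves, at least five concentrations (normally 10^-4 to 10^-9 M), each in triplicate; at least 3 independent determinations.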
(In Ellman's method for cholinesterases, released thiocholine reacts with DTNB.)

The next experiment addresses Acetylcholinesterase (Electrophorus electricus, UniProt O42275). Nature of the experiment: Inhibition of electric eel AChE by Ellman's method. In outline: as §1

One may read the IC50 as the midpoint of a concentration-inhibition curve. Read a low IC50 as inhibition by little substance. As for `CNC(=O)Oc1ccc2c(c1)[C@]1(C)CCN(C)[C@@H]1N2C` [PHYSOSTIGMINE], the figures for the half-maximal inhibitory concentration (IC50) against Cholinesterase and against Acetylcholinesterase were 60 nM and 7.7 nM, respectively.
